Assay results: patent publication US7951538B2, “Method to determine the risk for side effects of an SSRI treatment in a person” (The Board of Trustees of the Leland Stanford Junior …, priority 2001, dated 2011)

System: patients with major depression
Test: 8 week treatment of elderly patients with major depression, genotyped for the 5-HT2A receptor gene 102 T/C polymorphism: discontinuations, adverse events, dosing, plasma levels

Structure (SMILES): Fc1ccc([C@@H]2CCNC[C@H]2COc2ccc3c(c2)OCO3)cc1 [paroxetine]
- survival analyses, discontinuations due to any cause (3 genotype groups, Caucasian subjects): did not show a difference
- plasma levels at day 28 (C/C patients versus T carriers, all subjects, p=0.056): Lower
- severity of side effects due to study drug (C/C versus T carriers, Caucasian subjects, p=0.051): Greater severity
